The record followed here is ChEMBL document CHEMBL4321875, “Potent, Selective, Water Soluble, Brain-Permeable EP2 Receptor Antagonist for Use in Central Nervous System Disease Models” (J Med Chem, 2020).

SMILES strings stand for the structures. Calls of active or inactive are those of the source. The rule behind the calls is not given here.

The target of this experiment is T1, Transcription factor Dp-1 (Homo sapiens) (UniProt Q14186).
T1 sequence (whole entry): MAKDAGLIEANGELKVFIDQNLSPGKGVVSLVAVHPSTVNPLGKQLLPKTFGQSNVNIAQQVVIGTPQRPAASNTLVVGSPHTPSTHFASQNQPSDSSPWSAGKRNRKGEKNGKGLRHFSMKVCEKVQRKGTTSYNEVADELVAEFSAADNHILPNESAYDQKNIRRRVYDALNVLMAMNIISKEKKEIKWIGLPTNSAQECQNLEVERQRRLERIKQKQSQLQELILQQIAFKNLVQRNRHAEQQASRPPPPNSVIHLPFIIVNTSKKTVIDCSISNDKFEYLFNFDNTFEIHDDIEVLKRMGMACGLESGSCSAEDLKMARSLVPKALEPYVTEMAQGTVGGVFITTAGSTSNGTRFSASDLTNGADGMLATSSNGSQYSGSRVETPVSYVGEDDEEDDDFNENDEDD
Put plainly: Antagonist activity at human DP1 transfected in rat C6 cells assessed as decrease in decrease in BW245C-induced DP1 response by measuring intracellular cAMP incubated for 10 mins followed by BW245C addition and measured after 40 mins by TR-FRET assay. It counts as cell-based. Background: Time-resolved FRET reads energy transfer from a long-lived donor to a nearby acceptor.

For `Cc1cc(C)nc(Nc2ncc(C(=O)NCCc3c(C)[nH]c4ccccc34)cn2)c1`, the inhibition entry is “inactive”.
